Data as given in patent US7300950B2, “Pyrazole derivatives, their preparation and their use in pharmaceuticals” (Aventis Pharma Deutschland GmbH, priority 1997, dated 2007).

Molecular target: T1, soluble guanylate cyclase (sGC) isolated from bovine lung (Bos taurus, UniProt P16068+P19687)
T1 construct: The sGC which was employed had been isolated from bovine lung; from tissue; host or cells: bovine lung
T1 sequence (P16068 1-619): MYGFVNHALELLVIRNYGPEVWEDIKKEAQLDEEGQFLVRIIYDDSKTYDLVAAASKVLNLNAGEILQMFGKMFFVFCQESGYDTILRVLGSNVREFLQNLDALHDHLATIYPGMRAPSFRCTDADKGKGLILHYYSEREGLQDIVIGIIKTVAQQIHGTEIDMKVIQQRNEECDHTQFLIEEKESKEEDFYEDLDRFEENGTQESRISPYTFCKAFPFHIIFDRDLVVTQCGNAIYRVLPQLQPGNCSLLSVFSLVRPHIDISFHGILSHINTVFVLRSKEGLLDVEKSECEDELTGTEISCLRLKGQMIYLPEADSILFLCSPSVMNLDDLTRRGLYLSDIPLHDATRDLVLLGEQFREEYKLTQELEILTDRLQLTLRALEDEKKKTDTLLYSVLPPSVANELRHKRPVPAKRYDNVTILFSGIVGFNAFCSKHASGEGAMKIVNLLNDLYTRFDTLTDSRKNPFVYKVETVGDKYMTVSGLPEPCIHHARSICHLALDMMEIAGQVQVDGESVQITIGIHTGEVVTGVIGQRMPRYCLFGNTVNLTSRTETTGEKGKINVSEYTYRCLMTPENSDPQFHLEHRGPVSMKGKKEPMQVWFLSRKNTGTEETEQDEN
T1 sequence (P19687 1-691): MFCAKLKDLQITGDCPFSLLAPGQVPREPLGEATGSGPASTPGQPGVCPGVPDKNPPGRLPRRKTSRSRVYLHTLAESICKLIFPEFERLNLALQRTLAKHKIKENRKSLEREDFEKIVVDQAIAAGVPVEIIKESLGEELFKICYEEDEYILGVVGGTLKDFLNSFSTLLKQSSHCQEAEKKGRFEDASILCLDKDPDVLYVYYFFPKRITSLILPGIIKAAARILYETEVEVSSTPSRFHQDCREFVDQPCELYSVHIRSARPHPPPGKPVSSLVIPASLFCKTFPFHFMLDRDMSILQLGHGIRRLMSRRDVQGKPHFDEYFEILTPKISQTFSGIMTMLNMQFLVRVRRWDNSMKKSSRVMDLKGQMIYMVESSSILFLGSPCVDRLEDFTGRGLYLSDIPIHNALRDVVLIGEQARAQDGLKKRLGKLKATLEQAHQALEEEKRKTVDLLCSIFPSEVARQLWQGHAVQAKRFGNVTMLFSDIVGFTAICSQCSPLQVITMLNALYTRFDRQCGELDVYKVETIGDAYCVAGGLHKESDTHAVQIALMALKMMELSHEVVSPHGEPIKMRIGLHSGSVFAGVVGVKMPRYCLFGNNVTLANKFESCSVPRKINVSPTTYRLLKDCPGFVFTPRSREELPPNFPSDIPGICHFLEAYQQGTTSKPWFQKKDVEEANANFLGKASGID
Test: Activation of the soluble guanylate cyclase (cGMP enzyme immunoassay)
Format: biochemical
Details: concentration 100 μM; n-fold stimulation of basal enzyme activity = [cGMP]test substance/[cGMP]control
Description: 1. Activation of the Soluble Guanylate Cyclase
The activation of the sGC, which catalyzes the conversion of GTP into cyclic guanosine monophosphate cGMP and pyrophosphate, by the compounds according to the invention was quantified with the aid of an enzyme immunoassay “EIA” from Amersham. For this purpose the substances to be tested were initially incubated with sGC in microtiter plates, and the amount of the cGMP formed was then determined.
The test solutions (100 μl per well) contained 50 mM triethanolamine “TEA” buffer (pH 7.5), 3 mM MgCl2, 3 mM reduced glutathione “GSH,” 0.1 mM GTP, 1 mM 3-isobutyl-1-methylxanthine “IBMX,” suitably diluted enzyme solution and the substance to be tested or, in the control experiments, the solvent. […] The DMSO concentration in the test solution was 5% (v/v). The reaction was initiated by addition of the sGC. The reaction mixture was incubated at 37° C. for 15 to 20 minutes and then stopped by ice-cooling and addition of the stop reagent (50 mM EDTA, pH 8.0). […] The absorption of the samples was measured at 450 nm (reference wavelength 620 nm) in a microtiter plate reader. The cGMP concentration was determined using a standard curve which was obtained under the same test conditions. […] This is calculated using the formula: n-fold stimulation=[cGMP]test substance/[cGMP]control.

1-Benzyl-3-(5-(1-hydroxyprop-2-in-1-yl)-2-furyl)indazole [Example 44]
n-fold stimulation: 3.2-fold
